Source: paper doi:10.1101/2024.05.25.595884 (bioRxiv, 2024)

Target: full-length human HER2 with enhanced green fluorescent protein (eGFP) at the C-terminal end (Homo sapiens, UniProt P04626)
Experiment: SPID

B1: Trastuzumab scFab variant Y52R (Fab, V domains shown)
VH: [… about 120 residues with changes …]
VL: DIQMTQSPSSLSASVGDRVTITCRASQDVNTAVAWYQQKPGKAPKLLIYSASFLYSGVPSRFSGSRSGTDFTLTISSLQPEDFATYYCQQHYTTPPTFGQGTKVEIK
Kd: 2.4 nM
